Source: patent publication US10709790B2, “Chemical conjugates of Evans Blue derivatives and their use in the production of long-acting therapeutics” (THE UNITED STATES OF AMERICA, AS REPRESENTED BY THE …, priority 2015, dated 2020)

Experiment: Dynamic small animal PET imaging, time activity curves over the heart region
Conditions: TACs over heart region, two-phase exponential fit, tail vein injection of 18F tracer

For Exendin-4, the “3 phase half-life (tβ1/2)” value was 5.88 h.
